System: E. faecium 14054 (VSE)
Assay: Co-culture with vancomycin and Sytox Green, intrinsic fluorescence and membrane integrity of pellet
Assay type: cell-based
Conditions: for Microbial NADH fluorescence (Ex340 nm/Em440 nm) / Microbial tryptophan fluorescence (Ex300 nm/Em360 nm): 14054 (VSE)
Experimental: For each test strain, a 1 μL loopful of colonies from a 24-48 hour plate was suspended in 10-12 mL of BacT/ALERT SA media and cultured for 4-9 hours at 37° C. Samples of each log phase culture were then incubated with 0, 0.25, 2.5 and 12.5 μg/mL of vancomycin-HCl in combination with 1:5000 dilution of stock Sytox Green, a viable cell impermeant DNA stain (Molecular Probes, cat #S7020), for a period of 4 hours at 37° C. Aliquots of the cultures were removed for analysis immediately (T0) and after 1, 2.5 and 4 hours.
At the appropriate time-point, 0.5 mL aliquots of the cultures (0.5 mL) were overlaid on a density cushion composed of 24% w/v CsCl in 10 mM Hepes, pH 7.4 and 0.005% Pluronic F-108 contained in custom-made optical centrifugation tubes as disclosed in related U.S. patent application, Ser. No. 12/589,969, entitled “Separation Device for Use in the Separation, Characterization and/or Identification of Microorganisms”, filed Oct. 30, 2009. The tubes were sealed and centrifuged at 10,000 rpm for 2 minutes to separate intact microorganisms from the culture medium and unbound chemicals. The tubes were then placed into a custom-built tube holder directly onto a fiber optic probe built into the base. The probe was attached to a FluoroLog 3 spectrofluorimeter. The tube was interrogated through its UV-transparent base, and fluorescence and diffuse reflectance readings collected.

[1] = VSE strain 14054, vancomycin 2.5 and 12.5 μg/mL

CN[C@H](CC(C)C)C(=O)N[C@H]1C(=O)N[C@@H](CC(N)=O)C(=O)N[C@H]2C(=O)N[C@H]3C(=O)N[C@H](C(=O)N[C@H](C(=O)O)c4cc(O)cc(O)c4-c4cc3ccc4O)[C@H](O)c3ccc(c(Cl)c3)Oc3cc2cc(c3O[C@@H]2O[C@H](CO)[C@@H](O)[C@H](O)[C@H]2O[C@H]2C[C@](C)(N)[C@H](O)[C@H](C)O2)Oc2ccc(cc2Cl)[C@H]1O [vancomycin]
Microbial NADH fluorescence (Ex340 nm/Em440 nm) (Vanc. 0.25 μg/mL, 1 hour): 298,998
Microbial tryptophan fluorescence (Ex300 nm/Em360 nm) (Vanc. 0.25 μg/mL, 1 hour): 601,874
Microbial NADH fluorescence (Ex340 nm/Em440 nm) (Vanc. 0.25 μg/mL, 2.5 hour): 733,656
Microbial tryptophan fluorescence (Ex300 nm/Em360 nm) (Vanc. 0.25 μg/mL, 2.5 hour): 670,217
Microbial NADH fluorescence (Ex340 nm/Em440 nm) (Vanc. 0.25 μg/mL, 4 hour): 534,989
Microbial tryptophan fluorescence (Ex300 nm/Em360 nm) (Vanc. 0.25 μg/mL, 4 hour): 808,566
Microbial NADH fluorescence (Ex340 nm/Em440 nm) (Vanc. 0.25 μg/mL, Zero time): 449,599
Microbial tryptophan fluorescence (Ex300 nm/Em360 nm) (Vanc. 0.25 μg/mL, Zero time): 387,455
Microbial NADH fluorescence (Ex340 nm/Em440 nm) (Vanc. 2.5 μg/mL, 1 hour): 195,152
Microbial tryptophan fluorescence (Ex300 nm/Em360 nm) (Vanc. 2.5 μg/mL, 1 hour): 431,754
Microbial tryptophan fluorescence (Ex300 nm/Em360 nm) (Vanc. 2.5 μg/mL, 2.5 hour): 437,349
Microbial NADH fluorescence (Ex340 nm/Em440 nm) (Vanc. 2.5 μg/mL, 4 hour): 96,954
Microbial tryptophan fluorescence (Ex300 nm/Em360 nm) (Vanc. 2.5 μg/mL, 4 hour): 428,796
Microbial NADH fluorescence (Ex340 nm/Em440 nm) (Vanc. 2.5 μg/mL, Zero time): 290,986
Microbial tryptophan fluorescence (Ex300 nm/Em360 nm) (Vanc. 2.5 μg/mL, Zero time): 369,386
Microbial NADH fluorescence (Ex340 nm/Em440 nm) (Vanc. 12.5 μg/mL, 1 hour): 188,273
Microbial tryptophan fluorescence (Ex300 nm/Em360 nm) (Vanc. 12.5 μg/mL, 1 hour): 421,876
Microbial NADH fluorescence (Ex340 nm/Em440 nm) (Vanc. 12.5 μg/mL, 2.5 hour): 128,491
Microbial tryptophan fluorescence (Ex300 nm/Em360 nm) (Vanc. 12.5 μg/mL, 2.5 hour): 387,066
Microbial NADH fluorescence (Ex340 nm/Em440 nm) (Vanc. 12.5 μg/mL, 4 hour): 109,080
Microbial tryptophan fluorescence (Ex300 nm/Em360 nm) (Vanc. 12.5 μg/mL, 4 hour): 403,029
Microbial tryptophan fluorescence (Ex300 nm/Em360 nm) (Vanc. 12.5 μg/mL, Zero time): 384,046
Course of cellular NADH levels [1]: gradually declined over time
Course of cellular tryptophan levels [1]: remained stable over time

Source: patent US10988792B2, “Methods for antimicrobial resistance determination” (bioMerieux, Inc., priority 2009, dated 2021)
